Earlier results as cited in patent US20210145842A1, “NEW THERAPEUTIC USES” (NOVARTIS AG, priority 2018, published 2021).

Test system: patients with advanced NSCLC with EGFR activating mutations
Details: IPASS; cited from earlier work

COc1cc2ncnc(Nc3ccc(F)c(Cl)c3)c2cc1OCCCN1CCOCC1 [gefitinib]
ORR: 71.2%
PFS: 9.5 months
